# According to PMC5053593, “Tetrahydrobiopterin Supplementation: Elevation of Tissue Biopterin Levels Accompanied by a Relative Increase in Dihydrobiopterin in the Blood and the Role of Probenecid-Sensitive Uptake in Scavenging Dihydrobiopterin in the Liver and Kidney of Rats” (PLoS ONE, 2016):
# Where a name gives a salt, the structure may show the parent alone.
# Settings: both, Sprague-Dawley, rat, in vivo
# Protocol: Each blood sample was divided into three portions; one served as a “whole blood” specimen, the second was for the hematocrit determination, and the third was centrifuged (10,000 rpm, 4°C, 5 min) to separate red blood cells (RBCs) from the plasma. The whole blood, plasma, and RBCs were separately subjected to differential iodine oxidation for the BP determination described below. The results were expressed as the amount of BP per unit volume of the original blood sample (plasma + RBC, mL) based on the hematocrit value. […] However, for the brain, the BP carryover was estimated using an average blood inclusion of 1.2% (v/w), which was determined by a comparison of the heme content of the blood and brain homogenates based on light absorbance at 415 nm.
# Biopterin was determined essentially according to Fukushima and Nixon and modified as described previously. […] With their method, the biopterin quantity remaining after the acid-oxidation was taken as the total biopterin (BP = “BH4” + “BH2” + “oxidized biopterin”) and that which remained after the alkaline-oxidation, as 7,8-dihydrobiopterin (BH2) plus oxidized biopterin. […] Accordingly, in this study, the biopterin amount measured after the acid iodine oxidation was taken as the sum of “BH4” and “BH2” (“BP” = “BH2” + “BH4”), and that after the alkaline oxidation, as the amount of “BH2”. […]
smiles,measurement,setting,value
"C[C@H](O)[C@H](O)[C@H]1CNc2nc(N)[nH]c(=O)c2N1 [6RBH4, (6R)-L-erythro-5,6,7,8-tetrahydrobiopterin dihydrochloride]",BH4% in liver,30 min,98.7 ±0.1%
same,BH4% in kidney,120 min,98.6 ±0.3%
